By UniProt entry, the sequences of proteins in these tests, tags left out. Residues count along the entry.
UniProt P98170, 238-358 limits assumed: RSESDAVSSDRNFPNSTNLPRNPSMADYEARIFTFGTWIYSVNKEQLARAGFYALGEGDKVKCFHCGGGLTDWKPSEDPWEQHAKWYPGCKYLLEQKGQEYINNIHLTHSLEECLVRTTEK
UniProt Q13490, 255-364 limits assumed: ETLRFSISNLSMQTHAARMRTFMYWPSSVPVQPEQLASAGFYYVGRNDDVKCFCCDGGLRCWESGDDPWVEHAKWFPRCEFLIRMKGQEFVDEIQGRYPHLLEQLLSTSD
UniProt Q13489, 236-342 limits assumed: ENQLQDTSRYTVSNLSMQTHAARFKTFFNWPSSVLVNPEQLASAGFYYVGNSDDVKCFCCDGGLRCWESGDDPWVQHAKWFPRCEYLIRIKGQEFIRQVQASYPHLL

In patent publication US20250002493A1, “PYRIDONE COMPOUND AND PREPARATION METHOD THEREFOR, PHARMACEUTICAL COMPOSITION AND USE” (NANJING CHINA-AUSTRALIA INSTITUTE OF TRANSLATIONAL MEDICINE …, priority 2022, published 2025):

Columns and labels:
[1] = target: BIR3 domain of human XIAP (residues 238-358) (Homo sapiens (Human), UniProt P98170); test: Fluorescence polarization competitive binding to XIAP BIR3; conditions: read-out: XIAP BIR3 Ki; FP, peptide probe 5 nM, XIAP BIR3 30 nM, 1 hour room temperature
[2] = target: BIR3 domain of human cIAP1 (residues 255-364) (Homo sapiens (Human), UniProt Q13490); test: Fluorescence polarization competitive binding to cIAP1 BIR3; conditions: read-out: cIAP1 BIR3 Ki; FP, peptide probe 5 nM, cIAP1 BIR3 5 nM, 1 hour room temperature
[3] = target: BIR3 domain of human cIAP2 (residues 236-342) (Homo sapiens (Human), UniProt Q13489); test: Fluorescence polarization competitive binding to cIAP2 BIR3; conditions: read-out: cIAP2 BIR3 Ki; FP, peptide probe 5 nM, cIAP2 BIR3 10 nM, 1 hour room temperature

Ki [1]: 55.2 nM
Ki [2]: 1.6 nM
Ki [3]: 3.8 nM
SMILES: CN[C@@H](C)C(=O)N[C@H](C(=O)N1CC(C)(C)c2[nH]c(=O)c(Cc3ccc(F)cc3F)cc21)C(C)(C)C
